Article PMC7723054
This is one part of the list.

T1: LIN28A (human?, UniProt Q9H9Z2 1-209)
T1 sequence: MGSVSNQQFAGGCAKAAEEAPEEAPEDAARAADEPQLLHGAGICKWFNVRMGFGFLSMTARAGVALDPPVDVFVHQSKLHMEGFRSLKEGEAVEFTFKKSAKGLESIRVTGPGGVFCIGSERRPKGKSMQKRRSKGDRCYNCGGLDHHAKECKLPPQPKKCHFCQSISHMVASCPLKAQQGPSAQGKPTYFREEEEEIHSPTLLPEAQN

T2: CIRBP (Homo sapiens, UniProt Q14011 1-172)
T2 sequence: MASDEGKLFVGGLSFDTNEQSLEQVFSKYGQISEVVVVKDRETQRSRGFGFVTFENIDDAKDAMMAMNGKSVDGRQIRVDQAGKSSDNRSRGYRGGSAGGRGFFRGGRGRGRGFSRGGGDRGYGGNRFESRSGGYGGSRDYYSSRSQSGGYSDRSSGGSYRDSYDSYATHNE

T3: DHX36 (Homo sapiens, UniProt Q9H2U1 1-1008)
T3 sequence: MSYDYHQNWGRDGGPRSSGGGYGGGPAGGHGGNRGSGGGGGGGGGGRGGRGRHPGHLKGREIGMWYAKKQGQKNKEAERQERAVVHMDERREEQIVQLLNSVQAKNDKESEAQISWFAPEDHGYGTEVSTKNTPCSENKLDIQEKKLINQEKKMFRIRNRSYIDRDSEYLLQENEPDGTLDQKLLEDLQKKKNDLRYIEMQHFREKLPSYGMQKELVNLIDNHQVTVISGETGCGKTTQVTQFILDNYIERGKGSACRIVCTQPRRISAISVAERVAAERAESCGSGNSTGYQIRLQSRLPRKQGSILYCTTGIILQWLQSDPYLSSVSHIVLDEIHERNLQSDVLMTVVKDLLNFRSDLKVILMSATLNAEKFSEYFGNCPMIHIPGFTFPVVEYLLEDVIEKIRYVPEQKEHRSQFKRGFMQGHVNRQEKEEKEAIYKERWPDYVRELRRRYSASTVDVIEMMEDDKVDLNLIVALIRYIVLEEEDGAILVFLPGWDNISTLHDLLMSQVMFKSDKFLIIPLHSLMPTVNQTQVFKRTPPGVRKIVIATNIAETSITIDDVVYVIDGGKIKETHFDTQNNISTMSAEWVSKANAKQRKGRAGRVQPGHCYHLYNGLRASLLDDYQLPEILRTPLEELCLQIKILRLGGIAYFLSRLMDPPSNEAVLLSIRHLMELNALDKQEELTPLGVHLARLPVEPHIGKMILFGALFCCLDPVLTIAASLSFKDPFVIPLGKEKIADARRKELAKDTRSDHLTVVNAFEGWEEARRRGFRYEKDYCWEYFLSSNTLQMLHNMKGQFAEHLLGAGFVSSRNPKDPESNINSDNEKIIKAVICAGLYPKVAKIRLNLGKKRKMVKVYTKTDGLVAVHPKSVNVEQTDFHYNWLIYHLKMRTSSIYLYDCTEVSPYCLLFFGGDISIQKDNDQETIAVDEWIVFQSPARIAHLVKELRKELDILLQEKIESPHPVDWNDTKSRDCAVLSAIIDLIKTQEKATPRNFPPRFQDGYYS

B1: U1A (structured_RNA)
RNA: GGGACACGAGUUUGCCCGUUUAGGACUAGGUGUACGAAGUUUCAGCAUUGCACUCCGCUGAAGCUUCGUGCAC
B2: hsa-mir-3661 (structured_RNA)
RNA: GGGAAUACCGUGCAGGUCGUUCGACUUCGGUGUACGAAGUUUCAGCGCUGCUUGCACUCGUUCAGCGCUGAAGCUUCGUGCAC
B3: hsa-mir-633 (structured_RNA)
RNA: GGGAAAAUAUGCUCACGCUAGUACUCCCGGUGUACGAAGUUUCAGCUUAACCUAAAAUGAGAAGGCUAAGCUGAAGCUUCGUGCAC
B4: hsa-mir-4723 (structured_RNA)
RNA: GGGAAAGCAGGUGUAUAGCCAUACCUCCGGUGUACGAAGUUUCAGCAGAGCACCUCCUAGAGAAUGUUGAACUAAAGGUGCCCGCUGAAGCUUCGUGCAC
B5: PARIS_ID41 (structured_RNA)
RNA: GGGAAAUUCUAUAGUCACGGCGCGUCCCGGUGUACGAAGUUUCAGCACCUGCUCUGGCUCUUGGCACAUCUGGUUGGUGACACUGUUUUGUGAGAUGGGUGCUGAAGCUUCGUGCAC
B6: hsa-mir-450a-1 (structured_RNA)
RNA: GGGAACAGAGCUGCUUUGUUACGUGCAAGGUGUACGAAGUUUCAGCUAAUAUGCACUAUAAAUAUAUUGGCUGAAGCUUCGUGCAC
B7: PARIS_ID34 (structured_RNA)
RNA: GGGAAGGCCUACCGAUAGAAGGGCUAGUGGUGUACGAAGUUUCAGCGCUGGUGAUGCCCAACCCAGUGCUCUGCACCCAGGUCACACUGUGGCUUUGUCCUCUGCGCUGAAGCUUCGUGCAC
B8: hsa-mir-6797 (structured_RNA)
RNA: GGGAACUGUGCACGAGGUAGGUAUUUCAGGUGUACGAAGUUUCAGCAACAGGACCUGUGCUCACUGGGGCCUGCAGCUGAAGCUUCGUGCAC
B9: hsa-mir-6841 (structured_RNA)
RNA: GGGAAAGGGGUCCCUUAUCGGCUAAUAUGGUGUACGAAGUUUCAGCUUGUGAAACACAGGUGUUUUUUAACCUCACGCUGAAGCUUCGUGCAC
B10: hsa-mir-6789 (structured_RNA)
RNA: GGGAACUAAGAGGUACGUGCUGUGGGCAGGUGUACGAAGUUUCAGCCGCGGGCGGGUCCCAGGCUGGGCCCCUCGGAGGCCGGGUGCUCACUGCCCCGUCCCGGGCUGAAGCUUCGUGCAC
B11: hsa-mir-486-1 (structured_RNA)
RNA: GGGACGCACUUUGUUCGGUGGAAUAACAGGUGUACGAAGUUUCAGCCCCGAGGCCCUUCAUGCUGCCCAGCUCGGGGCUGAAGCUUCGUGCAC

Key:
Assay in all cases: FOREST: bead pull-down of RNA structure library v1, barcode microarray; U1A/LIN28A: 20 mM HEPES pH 7.5, 80 mM KCl, 20 mM NaCl, 10% glycerol, 2 mM DTT, 0.1 ug/uL BSA, 4 C; BG4/CIRBP/DHX36: 10 mM Tris-HCl pH 7.5, 100 mM KCl (or LiCl),; high values mean tight binding
U1A = U1A (Homo sapiens, UniProt P09012)
LIN28A = biological target: T1, LIN28A
CIRBP = biological target: T2, CIRBP
DHX36 = biological target: T3, DHX36

Row | Binder | binding signal (U1A) | binding signal (LIN28A) | binding signal (CIRBP) | binding signal (DHX36)
1 | B1 | 11.6 z-score | -0.55 z-score | -0.873 z-score | -1.39 z-score
2 | B2 | 10 z-score | -0.951 z-score | -1.29 z-score | -0.753 z-score
3 | B3 | 2.91 z-score | -0.893 z-score | -1.01 z-score | -0.123 z-score
4 | B4 | 1.56 z-score | -0.287 z-score | -1.02 z-score | 0.11 z-score
5 | B5 | 1.56 z-score | 1.4 z-score | 0.363 z-score | 0.0944 z-score
6 | B6 | 1.54 z-score | -0.56 z-score | -0.433 z-score | -1.3 z-score
7 | B7 | 1.54 z-score | 0.0644 z-score | 0.176 z-score | 0.0604 z-score
8 | B8 | 1.54 z-score | 1.09 z-score | 0.791 z-score | 0.372 z-score
9 | B9 | 1.54 z-score | 1.51 z-score | 0.906 z-score | 0.308 z-score
10 | B10 | 1.54 z-score | 0.518 z-score | -0.953 z-score | 0.0115 z-score
11 | B11 | 1.53 z-score | 0.00354 z-score | -0.718 z-score | 0.248 z-score
